The assay has as its target Cholesteryl ester transfer protein (Homo sapiens) (UniProt P11597). The experiment in a line: inhibition of human CETP assessed as cholesteryl ester transfer by fluorescence transfer assay relative to control. The following applies: concentration not given here. Details: concentration or dose not given beside the values.

The inhibition is the change of the read-out against control, counted positive when it falls.

In the case of `Cc1ccccc1OCC(=O)Nc1ccc(-c2nc3ccc(Cl)cc3o2)cc1`, the inhibition stood at 32%.
